The values below come from ChEMBL document CHEMBL5506064, “Discovery of ITI-333, a Novel Orally Bioavailable Molecule Targeting Multiple Receptors for the Treatment of Pain and Other Disorders” (J Med Chem, 2024).

By UniProt entry, the sequences of proteins in these tests, tags left out.
UniProt P35372, whole entry, looked up: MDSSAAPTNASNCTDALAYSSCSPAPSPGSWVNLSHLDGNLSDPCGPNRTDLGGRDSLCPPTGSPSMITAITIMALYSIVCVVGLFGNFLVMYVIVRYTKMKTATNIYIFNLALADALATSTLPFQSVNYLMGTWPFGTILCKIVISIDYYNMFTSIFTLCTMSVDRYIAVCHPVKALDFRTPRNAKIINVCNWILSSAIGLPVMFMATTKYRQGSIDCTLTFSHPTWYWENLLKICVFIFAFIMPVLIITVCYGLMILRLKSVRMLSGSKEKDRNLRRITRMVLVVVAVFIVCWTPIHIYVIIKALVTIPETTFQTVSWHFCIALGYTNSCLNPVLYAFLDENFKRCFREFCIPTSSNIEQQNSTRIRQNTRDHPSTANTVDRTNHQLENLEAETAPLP
UniProt P31645, whole entry, looked up: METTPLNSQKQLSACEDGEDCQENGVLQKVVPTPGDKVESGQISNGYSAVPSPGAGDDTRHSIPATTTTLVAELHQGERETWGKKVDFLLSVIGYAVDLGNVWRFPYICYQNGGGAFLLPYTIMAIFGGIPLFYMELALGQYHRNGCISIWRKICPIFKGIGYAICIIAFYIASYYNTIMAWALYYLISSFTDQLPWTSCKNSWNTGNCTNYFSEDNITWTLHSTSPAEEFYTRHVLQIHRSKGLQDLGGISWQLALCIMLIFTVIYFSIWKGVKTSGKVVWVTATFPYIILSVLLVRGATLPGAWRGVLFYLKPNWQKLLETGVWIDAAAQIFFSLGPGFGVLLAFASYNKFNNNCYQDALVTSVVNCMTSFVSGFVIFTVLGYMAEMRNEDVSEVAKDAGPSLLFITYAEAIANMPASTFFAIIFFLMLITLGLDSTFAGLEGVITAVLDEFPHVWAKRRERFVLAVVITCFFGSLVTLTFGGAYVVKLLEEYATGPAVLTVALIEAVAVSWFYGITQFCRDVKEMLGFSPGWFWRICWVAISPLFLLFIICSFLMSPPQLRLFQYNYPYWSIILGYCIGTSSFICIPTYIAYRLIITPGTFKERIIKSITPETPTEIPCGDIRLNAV
UniProt P28223, whole entry, looked up: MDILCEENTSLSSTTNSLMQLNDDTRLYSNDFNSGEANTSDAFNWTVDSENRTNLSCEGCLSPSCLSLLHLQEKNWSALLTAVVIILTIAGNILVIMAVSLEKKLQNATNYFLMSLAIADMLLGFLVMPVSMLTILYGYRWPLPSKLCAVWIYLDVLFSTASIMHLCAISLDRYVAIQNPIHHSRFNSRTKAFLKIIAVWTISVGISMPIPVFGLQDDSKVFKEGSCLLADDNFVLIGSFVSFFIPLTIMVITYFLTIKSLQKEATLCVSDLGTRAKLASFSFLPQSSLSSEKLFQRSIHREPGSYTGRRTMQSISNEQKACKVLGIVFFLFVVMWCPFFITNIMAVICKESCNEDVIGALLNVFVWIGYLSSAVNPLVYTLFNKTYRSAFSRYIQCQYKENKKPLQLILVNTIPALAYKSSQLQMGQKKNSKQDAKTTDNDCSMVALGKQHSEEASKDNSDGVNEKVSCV
UniProt P14416, whole entry, looked up: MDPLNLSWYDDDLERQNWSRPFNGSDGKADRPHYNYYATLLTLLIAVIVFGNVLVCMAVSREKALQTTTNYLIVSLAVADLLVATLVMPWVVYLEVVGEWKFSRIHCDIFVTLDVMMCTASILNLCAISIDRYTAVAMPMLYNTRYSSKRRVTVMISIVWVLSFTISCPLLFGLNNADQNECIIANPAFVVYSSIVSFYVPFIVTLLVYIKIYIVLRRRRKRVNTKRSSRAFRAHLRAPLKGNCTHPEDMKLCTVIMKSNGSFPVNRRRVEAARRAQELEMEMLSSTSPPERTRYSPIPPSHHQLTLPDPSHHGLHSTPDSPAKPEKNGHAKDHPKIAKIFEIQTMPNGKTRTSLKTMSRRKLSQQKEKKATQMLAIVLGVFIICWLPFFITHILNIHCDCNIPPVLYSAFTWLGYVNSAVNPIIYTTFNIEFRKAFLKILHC
UniProt P21728, whole entry, looked up: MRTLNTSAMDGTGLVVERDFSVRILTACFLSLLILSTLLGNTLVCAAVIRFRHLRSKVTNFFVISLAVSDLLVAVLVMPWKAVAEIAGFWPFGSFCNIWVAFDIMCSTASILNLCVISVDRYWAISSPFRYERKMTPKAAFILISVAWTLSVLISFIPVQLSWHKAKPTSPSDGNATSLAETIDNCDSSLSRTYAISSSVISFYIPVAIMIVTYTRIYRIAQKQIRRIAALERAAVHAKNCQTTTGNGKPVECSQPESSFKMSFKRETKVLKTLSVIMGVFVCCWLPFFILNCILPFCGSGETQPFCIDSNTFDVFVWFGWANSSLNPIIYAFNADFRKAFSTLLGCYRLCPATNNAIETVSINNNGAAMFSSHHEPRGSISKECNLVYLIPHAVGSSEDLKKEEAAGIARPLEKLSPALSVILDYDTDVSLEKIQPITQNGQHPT

For assay [1], the target named is Mu-type opioid receptor (Homo sapiens) (UniProt P35372). Kind of assay: Displacement of [3H]DAMGO from human mu opioid receptor expressed in HEK293 cell membrane assessed as inhibition of radioligand binding at 100 nM incubated for 120 mins by competition binding based scintillation counter analysis relative to control. A general note: In a radioligand displacement assay an active substance lowers the binding of a labelled ligand.

Assay [2] concerns the target Sodium-dependent serotonin transporter (Homo sapiens) (UniProt P31645). Kind of assay: Displacement of [3H]-imipramine from human 5-HT transporter expressed in CHO cell membrane assessed as inhibition of radioligand binding at 100 nM incubated for 60 mins by competition binding based scintillation counter analysis relative to control. The class given is cell membranes.

In assay [3] the target is 5-hydroxytryptamine receptor 2A (Homo sapiens) (UniProt P28223). Kind of assay: Displacement of [125I]DOI from human 5-HT2A receptor expressed in HEK293 cell membrane assessed as inhibition of radioligand binding at 100 nM incubated for 60 mins by competition binding based scintillation counter analysis relative to control. The class given is cell membranes. As to conditions: filed as antagonist.

Assay [4] deals with D(2) dopamine receptor (Homo sapiens) (UniProt P14416). The assay can be described thus: Displacement of [3H]7-OH-DPAT from human dopamine D2 receptor expressed in HEK293 cell membrane assessed as inhibition of radioligand binding at 100 nM incubated for 60 mins by competition binding based scintillation counter analysis relative to control. It counts as cell membranes.
The target of assay [5] is D(1A) dopamine receptor (Homo sapiens) (UniProt P21728). The assay can be described thus: Displacement of [3H]SCH-23390 from human dopamine D1 receptor expressed in CHO cell membrane assessed as inhibition of radioligand binding at 100 nM incubated for 60 mins by competition binding based scintillation counter analysis relative to control. It counts as cell membranes.
Assay [6] concerns the target Mu-type opioid receptor (Homo sapiens) (UniProt P35372). Kind of assay: Displacement of [3H]DAMGO from human mu opioid receptor expressed in HEK293 cell membrane assessed as inhibition of radioligand binding at 30 nM incubated for 120 mins by competition binding based scintillation counter analysis relative to control.
The test system of assay [7] is Mus musculus. The assay can be described thus: Analgesic activity in thermal stimulated CD-1 mouse assessed as increase in latency to pain response at SC administration measured after 30 mins by tail flick assay. Background: Hot-plate and tail-flick tests time the reaction to a heat stimulus.
Assay [8] has as its system Mus musculus. The assay can be described thus: Analgesic activity in thermal stimulated CD-1 mouse assessed as increase in latency to pain response at po administration measured after 30 mins by tail flick assay.
The subject of assay [9] is Mus musculus. Kind of assay: Analgesic activity in thermal stimulated CD-1 mouse assessed as increase in latency to pain response at 3 mg/kg,SC administration once daily for 14 days by tail flick assay. The following applies: time 14.0 day.
Assay [10] relates to Mus musculus. The assay can be described thus: Analgesic activity in thermal stimulated CD-1 mouse assessed as increase in latency to pain response at 0.3 mg/kg,SC administration once daily for 14 days by tail flick assay. As to conditions: time 14.0 day.
Assay [11] has as its system Mus musculus. The assay can be described thus: Analgesic activity in naloxone induced CD-1 mouse assessed as increase in latency to pain response at 1 to 10 mg/kg,po administration measured after 30 mins by tail flick assay. As to conditions: dose 1-10 mg/kg.
For assay [12], the system named is Mus musculus. Kind of assay: Analgesic activity in thermal stimulated CD-1 mouse assessed as increase in latency to pain response at 0.1 to 1 mg/kg,SC administration once daily for 14 days by tail flick assay. As to conditions: dose 0.1-1 mg/kg, time 14.0 day.
Assay [13] deals with Mus musculus. The assay can be described thus: Analgesic activity in thermal stimulated CD-1 mouse assessed as increase in latency to pain response at 0.1 to 1 mg/kg,SC administration measured after 30 mins on day 15 by tail flick assay. The following applies: dose 0.1-1 mg/kg.
The species named for assay [14] is Mus musculus. Kind of assay: Analgesic activity against formalin-induced inflammatory pain C57Bl/6 mouse model assessed as reduction in licking response at SC pretreated for 30 min followed by formalin challenge and measured after 30 mins. The following applies: time 60.0 min.
The target of assay [15] is Mu-type opioid receptor (Homo sapiens) (UniProt P35372). The assay can be described thus: Partial agonist activity at recombinant human mu opioid receptor expressed in CHO-K1 cells assessed as inhibition of forskolin induced cAMP production by measuring maximal efficacy by whole cell-based assay relative to control. On the technique in general: Changes in cAMP serve as a functional read-out for many G protein-coupled receptors.

The source made the active and inactive calls. No cut-off for these calls is given here.

One may read the inhibition as the share of the control response that was lost under treatment. On to `CCCCN1CC[C@H]2[C@@H](C1)c1cccc3c1N2CC(=O)N3`, for which the inhibition entry in assay [1] was “inactive”. Consider `O=C1CN2c3c(cccc3[C@@H]3CN(CCCNc4ccc(F)cc4)CC[C@@H]32)N1`, for which the inhibition in [1] (filed as partial agonist) was found to be 83%. Take `O=C1CN2c3c(cccc3[C@@H]3CN(CCOc4ccc(F)cc4)CC[C@@H]32)N1`: the inhibition in [1] was 30%. Still for that read-out and setting: with `O=C1CN2c3c(cccc3[C@@H]3CN(CCCOc4ccc(O)cc4)CC[C@@H]32)N1` the figure was 13%; with `O=C1CN2c3c(cccc3[C@@H]3CN(CCCO)CC[C@@H]32)N1`, 11%. Consider `CC1C(=O)Nc2cccc3c2N1[C@H]1CCN(CCCOc2ccc(F)cc2)C[C@@H]31` (stereo not given in full), for which the inhibition in [1] (filed as partial agonist) was 40%. Still for that read-out and setting: the same measure for `O=C1CN2c3c(cccc3[C@@H]3CN(CCCSc4ccc(F)cc4)CC[C@@H]32)N1`: 73%; for `Cc1cc(F)cc(C)c1OCCCN1CC[C@H]2[C@@H](C1)c1cccc3c1N2CC(=O)N3`: 84%.

As to `O=C1CN2c3c(cccc3[C@@H]3CN(CCCOc4ccccc4F)CC[C@@H]32)N1`, the inhibition in [1] worked out at 33%. As to `O=C1CN2c3c(cccc3[C@@H]3CN(CCCOc4ccc(F)cc4F)CC[C@@H]32)N1`, in [2], the inhibition entry was “inactive”. Besides, the inhibition in assay [3] was 85%; in [4] it was 36%; in [5], 21%; in assay [1] (filed as partial agonist), 61%.

As for `O=C1CN2c3c(cccc3[C@@H]3CN(CCCOc4ccc(F)c(O)c4)CC[C@@H]32)N1`, the inhibition was 13% in assay [2], 46% in [3], 25% in assay [5] and 23% in assay [1]. In assay [4], the inhibition entry is “inactive”.

In the case of `COc1ccc(OCCCN2CC[C@H]3[C@@H](C2)c2cccc4c2N3CC(=O)N4)cc1`, the inhibition entry in assay [1] was “inactive”.

Consider `O=C1CN2c3c(cccc3[C@@H]3CN(CCCOc4ccc(F)cc4O)CC[C@@H]32)N1`, for which the inhibition is 5% in assay [2]; 70% in assay [3]; 45% in assay [4] (filed as antagonist); 22% in assay [5]; 22% in assay [1]. Take `CN(CCCN1CC[C@H]2[C@@H](C1)c1cccc3c1N2CC(=O)N3)c1ccc(F)cc1`: the inhibition in [1] came out at 22%. On to `O=C1CN2c3c(cccc3[C@@H]3CN(CCCOc4ccc(Br)cc4)CC[C@@H]32)N1`, for which the inhibition in assay [1] (filed as partial agonist) was 90%. `O=C1CN2c3c(cccc3[C@@H]3CN(CCCS(=O)(=O)c4ccc(F)cc4)CC[C@@H]32)N1`: in assay [1], the inhibition result was “inactive”. For `O=C1CN2c3c(cccc3[C@@H]3CN(CCCOc4ccc5c(c4)OCO5)CC[C@@H]32)N1`, the inhibition in assay [6] was determined as 29%. Turning to `O=C1CN2c3c(cccc3[C@@H]3CN(CCCOc4ccc(OCc5ccccc5)cc4)CC[C@@H]32)N1`, in assay [1] (filed as partial agonist), the inhibition came to 56%. Turning to `O=C1CN2c3c(cccc3[C@@H]3CN(CCCCOc4ccc(F)cc4)CC[C@@H]32)N1`, the inhibition in assay [1] stood at 39%. On the same count and under the same terms, with `O=C1CCN2c3c(cccc3[C@@H]3CN(CCCOc4ccc(F)cc4)CC[C@@H]32)N1` the figure was 38%. Take `O=C1CN2c3c(cccc3[C@@H]3CN(CCCOc4ccccc4)CC[C@@H]32)N1`: the inhibition in assay [1] (filed as partial agonist) is 61%. Turning to `O=C1CN2c3c(cccc3[C@@H]3CN(CCCOc4cccc(F)c4)CC[C@@H]32)N1`, the inhibition in assay [1] (filed as partial agonist) came out at 72%.

As to `CC1(C)C(=O)Nc2cccc3c2N1[C@H]1CCN(CCCOc2ccc(F)cc2)C[C@@H]31`, in assay [2], the inhibition result was “inactive”. For the same compound, the inhibition is 89% in [3], 57% in assay [4] (filed as antagonist), 27% in assay [5] and 8% in assay [1].

The Emax is the maximal effect, on the per cent scale that the assay sets. As for `O=C1CN2c3c(cccc3[C@@H]3CN(CCCOc4ccc(F)cc4)CC[C@@H]32)N1`, the Activity result in assay [7], in assay [8] and in assay [14] was “Dose-Dependent Effect” throughout. In addition, the outcome in [9], in assay [10], in [12] and in assay [13] was Active. Moreover, the outcome in assay [11] was inactive. The Emax in [15] came to 22%. For `Cc1ccc(OCCCN2CC[C@H]3[C@@H](C2)c2cccc4c2N3CC(=O)N4)cc1`, the inhibition in assay [1] (filed as partial agonist) was determined as 53%. In the case of `NC(=O)c1cc(F)ccc1OCCCN1CC[C@H]2[C@@H](C1)c1cccc3c1N2CC(=O)N3`, the inhibition in assay [1] (filed as partial agonist) is 76%.
